Where two headings read alike, the source gives them in different places.
Tested on: advanced or metastatic ER+ breast cancer (MBC)
Details: for Hazard Ratio (PFS): GDC-0941 vs placebo, both on fulvestrant; for PFS hazard ratio (95% CI), stratified analysis: endocrine resistance

CS(=O)(=O)N1CCN(Cc2cc3nc(-c4cccc5[nH]ncc45)nc(N4CCOCC4)c3s2)CC1 [GDC-0941, 4-(2-(1H-indazol-4-yl)-6-((4-(methylsulfonyl)piperazin-1-yl)methyl)thieno[3,2-d]pyrimidin-4-yl)morpholine]
Hazard Ratio (PFS) (All Patients (ITT), unstratified): 0.77
Hazard Ratio (PFS) (Baseline ECOG Score 0): 0.56
Hazard Ratio (PFS) (Baseline ECOG Score 1): 1.41
Hazard Ratio (PFS) (Bone Only Non-Measureable Disease at Baseline No): 0.94
Hazard Ratio (PFS) (Bone Only Non-Measureable Disease at Baseline Yes): 0.23
PFS hazard ratio (95% CI), stratified analysis (ITT, stratified by PIK3CA mut, measurable disease): 0.73 (0.45, 1.16)
PFS hazard ratio (95% CI), stratified analysis (ITT, stratified by PIK3CA mut, measurable disease, age, ECOG, BOLERO resistance, bone-only, visceral disease, last therapy setting, metastatic chemo): 0.59 (0.19, 1.87)
PFS hazard ratio (95% CI), stratified analysis (ITT, stratified by PIK3CA mutation, visceral disease): 0.62 (0.39, 1)
PFS hazard ratio (95% CI), stratified analysis (ITT, stratified by PIK3CA mutation, visceral disease, PR status, Luminal A/B): 0.55 (0.29, 1.05)
PFS hazard ratio (95% CI), stratified analysis (Luminal A, stratified by PIK3CA mut, measurable disease): 0.56 (0.28, 1.13)
PFS hazard ratio (95% CI), stratified analysis (Luminal A, stratified by PIK3CA mut, measurable disease, age, ECOG, BOLERO resistance, bone-only, visceral disease, last therapy setting, metastatic chemo): 0.41 (0.1, 1.64)
PFS hazard ratio (95% CI), stratified analysis (Luminal A, stratified by PIK3CA mutation, visceral disease): 0.54 (0.27, 1.06)
PFS hazard ratio (95% CI), stratified analysis (Luminal A, stratified by PIK3CA mutation, visceral disease, PR status, Luminal A/B): 0.45 (0.22, 0.93)
Hazard Ratio (PFS) (Measurable Disease at Baseline (Derived) No): 0.45
Hazard Ratio (PFS) (Measurable Disease at Baseline (Derived) Yes): 1.11
Hazard Ratio (PFS) (Num of Previous Therapies in Metastatic Setting 0): 0.46
Hazard Ratio (PFS) (Num of Previous Therapies in Metastatic Setting 1): 1.11
Hazard Ratio (PFS) (Num of Previous Therapies in Metastatic Setting 2): 0.88
Hazard Ratio (PFS) (Num of Previous Therapies in Metastatic Setting 3+): 0.55
Hazard Ratio (PFS) (PIK3CA Helical Domain Mutation Status Positive): 1.16
Hazard Ratio (PFS) (PIK3CA Helical Domain Mutation Status Unknown): 1.17
Hazard Ratio (PFS) (PIK3CA Helical Domain Mutation Status Wild Type): 0.64
Hazard Ratio (PFS) (PIK3CA Kinase Domain Mutation Status Positive): 0.68
Hazard Ratio (PFS) (PIK3CA Kinase Domain Mutation Status Unknown): 1.95
Hazard Ratio (PFS) (PIK3CA Kinase Domain Mutation Status Wild Type): 0.80
Hazard Ratio (PFS) (PIK3CA Mutation Status Positive): 0.92
Hazard Ratio (PFS) (PIK3CA Mutation Status Unknown): 1.31
Hazard Ratio (PFS) (PIK3CA Mutation Status Wild Type): 0.64
Hazard Ratio (PFS) (PR Status Negative): 1.40
Hazard Ratio (PFS) (PR Status Positive (n=116), unstratified): 0.45
Hazard Ratio (PFS) (PR Status Unknown): 7.21
PFS hazard ratio (95% CI), stratified analysis (PR-positive, stratified by PIK3CA mut, measurable disease): 0.48 (0.26, 0.87)
PFS hazard ratio (95% CI), stratified analysis (PR-positive, stratified by PIK3CA mut, measurable disease, age, ECOG, BOLERO resistance, bone-only, visceral disease, last therapy setting, metastatic chemo): 0.33 (0.06, 1.69)
PFS hazard ratio (95% CI), stratified analysis (PR-positive, stratified by PIK3CA mutation, visceral disease): 0.38 (0.2, 0.72)
PFS hazard ratio (95% CI), stratified analysis (PR-positive, stratified by PIK3CA mutation, visceral disease, PR status, Luminal A/B): 0.42 (0.2, 0.87)
Hazard Ratio (PFS) (Primary Resistance (Derived)): 0.71
Hazard Ratio (PFS) (Primary/Secondary Resistance Unknown): >999.99
Hazard Ratio (PFS) (Received Prior Adjuvant/Neo-Adjuvant Therapy No): 1.33
Hazard Ratio (PFS) (Received Prior Adjuvant/Neo-Adjuvant Therapy Yes): 0.66
Hazard Ratio (PFS) (Secondary Resistance (Derived)): 0.75
Hazard Ratio (PFS) (Visceral Disease No): 0.69
Hazard Ratio (PFS) (Visceral Disease Yes): 0.68

Reference: patent publication US10004748B2, “Methods of treating PR-positive, luminal A breast cancer with PI3K inhibitor, pictilisib” (Genentech, Inc., priority 2014, dated 2018)
